{
  "source": "patent US20160290995A1",
  "about": "“METHODS OF SELECTING AKT AGONISTS OR ANTAGONISTS” (OREGON HEALTH & SCIENCE UNIVERSITY, priority 2015, published 2016)",
  "molecules": {"B1": {"name": "BMP-2: recombinant human BMP-2 (R&D Systems) (protein, UniProt P12643 283-396, looked up)", "Bone morphogenetic protein 2": "QAKHKQRKRLKSSCKRHPLYVDFSDVGWNDWIVAPPGYHAFYCHGECPFPLADHLNSTNHAIVQTLVNSVNSKIPKACCVPTELSAISMLYLDENEKVVLKNYQDMVVEGCGCR"}},
  "assay_type_in_all_cases": "cell-based, mouse",
  "key": {"[1]": {"test_system": "Akt phosphorylation", "experiment": "Immunoblotting of Akt and PRAS40 phosphorylation in 10T1/2 whole cell lysates", "details": "60 min; 10% FBS, PDGF-BB 206 pM, R3-IGF-I 1 nM, BMP-2 15 nM", "protocol": "(§1) 10T1/2 cells were incubated in supplemented FluoroBrite plus R3-IGF1 [1 nM], PDGF-BB [206 pM], BMP-2 [15 nM]), 10% FBS, or vehicle. Cells were imaged every 2-min for 60 min. At the end of the incubation period whole cell lysates were collected.\n(§2) Whole cell protein lysates were prepared as described (Mukherjee A and Rotwein P, Mol Endorcrinol 22, 1238-1250 (2008); incorporated by reference herein). Protein aliquots (15 μg/lane) were resolved by SDS-PAGE (12% separating gel), followed by transfer to Immobilon-FL membranes, and blocking with 50% AquaBlock solution. Membranes were incubated sequentially with primary and secondary antibodies, as described (Mukherjee and Rotwein, 2008 supra). Primary antibodies were incubated for 12-16 hr at a 1:1000 dilution, except for α-tubulin (1:10,000), and secondary antibodies for 90 min at 1:5000. Images were captured using the LiCoR Odyssey and version 3.0 analysis software (Lincoln, Nebr.).\nC3H10T1/2 cells stably expressing FoxO1-clover were incubated in SFM with Fluorobrite imaging media for 90 min followed by addition of insulin [1400 pM], EGF [4.2 nM], PDGF-AA [1400 pM], or PDGF BB [104 pM]. […]"}, "[2]": {"test_system": "Akt", "experiment": "FOXO1-clover reporter live-cell imaging (relative nuclear intensity) in C3H10T1/2 fibroblasts", "details": "serum-starved cells, 60 min; 10% FBS, PDGF-BB 206 pM, R3-IGF-I 1 nM, BMP-2 15 nM", "protocol": "Cells were imaged every 2-min for 60 min. At the end of the incubation period whole cell lysates were collected.\n10T1/2 cells and C2 myoblasts were incubated in serum-free medium for 90 min. R3-IGF-I was added in supplemented FluoroBrite [0 to 500 pM], and cells were imaged every 2-min for 60 min. […]\nLive cell imaging was performed using an EVOS FL Auto microscope with a stage top incubator that was maintained at 37° C. and 95% humidified air with 5% CO2. Images were collected at 100× magnification at different intervals, using a 10× Fluorite objective (numerical aperture: 0.3), and a GFP light cube (excitation peak, 472/22 nm; emission peak, 510/42 nm). Images were analyzed with the NIH ImageJ plug-in Fiji (NIH, Bethesda, Md.), after using the Polynomial Fit plug-in to subtract background fluorescence, the Stack Reg (rigid registration) plug-in to register images, and the Gaussian Blur plug-in (at 2-pixels) to average fluorescence across pixels. Individual cells were manually tracked using the mTrackJ plug-in (Meijering E et al, Methods Enzymol 504, 183-200 (2012); incorporated by reference herein) by selecting a single point in the nucleus. Cells that died, divided, or migrated out of frame were excluded from analysis."}, "[3]": {"test_system": "Smad5", "experiment": "Immunoblotting of Smad5 phosphorylation in 10T1/2 whole cell lysates", "details": "BMP-2 15 nM, 60 min", "protocol": "as §1, §2"}},
  "data": [
    {"molecule": "B1", "values": [
      {"measurement": "Akt phosphorylation (pAkt T308 immunoblot)", "setting": "[1]", "result": "minimal Akt phosphorylation"},
      {"measurement": "subcellular localization of FOXO1-clover (result in words)", "setting": "[2]", "result": "predominantly nuclear localization of FOXO1-clover"},
      {"measurement": "Smad5 phosphorylation (immunoblot)", "setting": "[3]", "result": "did stimulate phosphorylation of Smad5"}
    ]}
  ]
}
